Reference: patent US12617784B2, “AKT inhibitor” (Nanjing Chia Tai Tianqing Pharmaceutical Co., Ltd., priority 2019, dated 2026)
pIC50: −log10 of the molar value.

Sequences of proteins named here, by UniProt entry; tags and fusion partners are left off. A change or cut given only in a name is not applied to a line headed by its entry.
UniProt P31751: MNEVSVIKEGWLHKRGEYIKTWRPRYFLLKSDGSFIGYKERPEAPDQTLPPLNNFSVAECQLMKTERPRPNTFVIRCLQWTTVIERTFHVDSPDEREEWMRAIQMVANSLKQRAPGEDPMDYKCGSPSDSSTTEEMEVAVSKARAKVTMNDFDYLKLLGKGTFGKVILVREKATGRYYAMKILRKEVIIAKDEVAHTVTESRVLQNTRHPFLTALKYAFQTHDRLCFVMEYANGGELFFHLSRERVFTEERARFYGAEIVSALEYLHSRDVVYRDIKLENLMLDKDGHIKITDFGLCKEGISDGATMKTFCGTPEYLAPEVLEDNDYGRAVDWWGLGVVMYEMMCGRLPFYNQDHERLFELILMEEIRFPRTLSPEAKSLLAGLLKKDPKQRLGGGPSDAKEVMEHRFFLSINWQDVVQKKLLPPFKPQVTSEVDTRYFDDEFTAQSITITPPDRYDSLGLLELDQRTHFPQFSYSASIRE

Molecular target: T1, AKT2 (Homo sapiens, UniProt P31751)
T1 construct: purchased Carna 01-102
Assay: In vitro enzyme activity test (HTRF kinEASE TK), AKT2
Format: biochemical
Conditions: ATP 20 μM, enzyme 0.1 ng/well, reaction 50 min
Experimental: Experimental Procedure 2.1 Preparation of Reagents
1 mL 1× Kinase Reaction Buffer of Kinase AKT1, AKT2 and AKT3 contain 200 μL 5× Kinase Reaction Buffer, 5 μL 1 M MgCl2, 1 μL 1 M DTT and 794 μL ultrapure water.
In addition to the control wells, 4 μL of the diluted compound working solutions were added to all reaction wells.
b) 2 μL of the previously prepared TK-biotin substrate solution was added to all reaction wells.
c) 2 μL of the previously prepared enzyme solution was added to all reaction wells, except the negative wells. The volume of the negative well was filled with 2 μL of enzyme corresponding to 1× kinase reaction buffer. The plate was sealed with sealing film. After mixing, the plate was incubated at room temperature for 10 min to allow the compound and enzyme to fully combined.
d) 2 μL of ATP solution was added to all reaction wells to start the kinase reaction.
e) The test solution was prepared 5 min before the end of the kinase reaction.
f) After the kinase reaction was completed, 5 μL of diluted streptavidin-XL665 were added to all reaction wells, and immediately the diluted europium-labeled tyrosine kinase substrate antibody detection solution was added after mixing.
g) The plate was sealed and mixed well. […] The inhibition rate of each well was calculated through the fully active wells and the background signal wells, taking the average value in case of multiple wells. […]

pIC50: ≤ 6.00
Structure (SMILES): C[C@@H]1CC(=O)Nc2ncnc(N3CCN(C(=O)[C@H](CNC4CC4)c4ccc(Cl)cc4)[C@H]4C[C@H]43)c21 (single isomer, unassigned) [Example 37 Isomer 1]
